Data taken from PMC8524809 (Molecular Therapy, 2021).

System: SARS-CoV-2
Format: cell-based

CC(C)(O)c1ccccc1CC[C@@H](SCC1(CC(=O)O)CC1)c1cccc(/C=C/c2ccc3ccc(Cl)cc3n2)c1 [montelukast]
Effective concentration on the SARS-CoV-2: 25 µM
